## Measured affinities in a library of Ab-91 heavy chain variants

Source: Engelhart et al. 2022 (doi:10.1038/s41597-022-01779-4), MIT Lincoln Laboratory and A-Alpha Bio; data file from the FLAb repository.

Target: peptide PDVDLGDISGINAS, taken from heptad repeat 2 (HR2) of SARS-CoV-2 spike.

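The starting antibody came from a phage panning campaign against this peptide. Variants in AAYL51 differ from the parent at up to three CDR positions; double and triple changes were sampled at random. The assay is AlphaSeq: two haploid yeast populations carry antibody and antigen on their surface. Pairs that bind mate more often; barcode pairs of the diploids are counted by sequencing. Each replicate has its own calibration line, from reference interactions of the BCL2 family. The assay was run in three technical replicates.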

Parent: Ab-91, a human scFv built as VL, three GGGGS repeats, VH. Only the CDRs of the heavy chain vary.
VL: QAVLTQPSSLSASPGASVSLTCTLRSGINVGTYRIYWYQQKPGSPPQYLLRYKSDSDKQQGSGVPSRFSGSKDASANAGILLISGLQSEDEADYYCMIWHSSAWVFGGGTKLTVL
VH: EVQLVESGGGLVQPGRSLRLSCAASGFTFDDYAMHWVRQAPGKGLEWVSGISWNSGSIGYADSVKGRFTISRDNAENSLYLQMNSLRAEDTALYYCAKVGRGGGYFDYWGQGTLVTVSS

Each variant is given by its three heavy chain CDRs, as the data file delimits them; those of the parent are GFTFDDYAMH, GISWNSGSIGYADSVK, VGRGGGYFDY.
This list gathers variants with a substitution at I51 (VH, numbered from residue 1).
Kd is apparent (estimated from mating counts) and averaged on the log scale over replicates with a signal. Smaller is tighter.
Where no diploid with the target was found in any replicate, the entry reads "nd": below detection, most likely a poor binder, though not proof of it.
Empty control strains, which show no peptide, gave a signal in 21% of pairings with library AAYL51; the median was 34 µM and 95% of these signals were weaker than 1.8 µM. No background was subtracted.

GFTFDDYAMH | GYSWNSGEIGYADRVK | VGRGGGYFDY: 11 µM (1 of 3 replicates).
GFTFDDYAMH | GTSWNSGSIGYADSVK | VGRGQWYFDY: 4.4 µM (1 of 3 replicates).
GFTFDDYAMH | GMSWNGGSIGYADSVK | VGRGGGYFDA: 25 nM (3 of 3 replicates).
GFTFDDYAIH | GASWNSGSIGYADSVK | VGRGGGAFDY: 14 µM (1 of 3 replicates).
QFTFDDYAMH | GVSWNSGSIGYADSVD | VGRGGGYFDY: nd (0 of 3 replicates).
GMTFDDYAMH | GWSWNSGSIGDADSVK | VGRGGGYFDY: 21 µM (1 of 3 replicates).
GFTRDDYAMH | GQSWNSGSIGYADSVK | VGKGGGYFDY: 19 µM (2 of 3 replicates).
GFTFDDYAMH | LGSWNSGSIGYADSVK | VFRGGGYFDY: nd (0 of 3 replicates).
GFTFDDQNMH | GWSWNSGSIGYADSVK | VGRGGGYFDY: nd (0 of 3 replicates).
GFTFDDYAMH | GASWNSGSIGYARSVK | GGRGGGYFDY: nd (0 of 3 replicates).
GFTFDDYAMH | GSSWNSGSIGYAFSVK | VGRGGGYFDY: nd (0 of 3 replicates).
GFQFDDYAMH | GMSWPSGSIGYADSVK | VGRGGGYFDY: nd (0 of 3 replicates).
GFTFDDYAMH | GHSWNSGSIGYADSVK | TGRGGGYFDY: 420 nM (1 of 3 replicates).
GFTFDDYAMH | GVSWNSGSIGYADSVK | VGCGSGYFDY: 230 nM (3 of 3 replicates).
GFTFDDYAMH | GKSWNSGSIGYADKVK | VGRAGGYFDY: nd (0 of 3 replicates).
GFGFDDYAMH | GTSWNSGSIGYADGVK | VGRGGGYFDY: nd (0 of 3 replicates).
GFTFDDYAMH | PNSWNSGSCGYADSVK | VGRGGGYFDY: 10 µM (1 of 3 replicates).
GFTFDDYAMH | GHSWNVGSIGYADSVK | VGRGGGYFVY: nd (0 of 3 replicates).
GFTFDDYAMH | VHSWNSGSIGYADSVK | VGVGGGYFDY: nd (0 of 3 replicates).
GFTFDDYAMH | GDQWNSGSIGYADSVK | VYRGGGYFDY: 59 µM (1 of 3 replicates).
DFTFDDYAMH | GFSWNSGEIGYADSVK | VGRGGGYFDY: 190 µM (2 of 3 replicates).
GFTFDDYAMH | WMSWNSGSIGYADSVK | TGRGGGYFDY: nd (0 of 3 replicates).
GFTFDDYAMH | GYSWNSGSIGYADSVK | VGRGGGCFDY: 8.9 µM (1 of 3 replicates).
GFTFDDYAMH | GHSWNSGSIGPADSVK | VGWGGGYFDY: nd (0 of 3 replicates).
GFTFDDYAMH | GTSWNSGSIGYCDSVK | VGRGGGYFDY: nd (0 of 3 replicates).
GFTFDDYAMH | GCSWNSGSIHYADSVK | VGFGGGYFDY: 9.5 µM (2 of 3 replicates).
GFTFDDYIMH | GKSWNSGSIGYAISVK | VGRGGGYFDY: nd (0 of 3 replicates).
GFTFDDYAMH | GLSWNSGFIGYADSTK | VGRGGGYFDY: 56 µM (2 of 3 replicates).
GFTFDDYAMH | GGSWNSGSIGYADSVK | VGRGGGYRDY: nd (0 of 3 replicates).
GFTFDIYAMH | GHSWNSGYIGYADSVK | VGRGGGYFDY: nd (0 of 3 replicates).
GFTRDDYAMH | GTSWNSGSIGYADAVK | VGRGGGYFDY: nd (0 of 3 replicates).
GFTFDDYAMH | GESWNSGSIGNADSVK | VGRGGGYFEY: nd (0 of 3 replicates).
VFTFDDYAMH | GMLWNSGSIGYADSVK | VGRGGGYFDY: nd (0 of 3 replicates).
GFTFDDYAMH | GGSWNSGSIGYADTVK | WGRGGGYFDY: 20 µM (2 of 3 replicates).
GTTFDDYAMH | GFSENSGSIGYADSVK | VGRGGGYFDY: 99 µM (2 of 3 replicates).
GFTFDDYAMI | GHSWNWGSIGYADSVK | VGRGGGYFDY: nd (0 of 3 replicates).
GFTFDDYAMH | GQSWWSGSIGYADSVN | VGRGGGYFDY: 4.7 µM (1 of 3 replicates).

The first 6 entries again:

CDR-H1	CDR-H2	CDR-H3	Kd (apparent)	seen in
GFTFDDYAMH	GYSWNSGEIGYADRVK	VGRGGGYFDY	11 µM	1 of 3
GFTFDDYAMH	GTSWNSGSIGYADSVK	VGRGQWYFDY	4.4 µM	1 of 3
GFTFDDYAMH	GMSWNGGSIGYADSVK	VGRGGGYFDA	25 nM	3 of 3
GFTFDDYAIH	GASWNSGSIGYADSVK	VGRGGGAFDY	14 µM	1 of 3
QFTFDDYAMH	GVSWNSGSIGYADSVD	VGRGGGYFDY	nd	0 of 3
GMTFDDYAMH	GWSWNSGSIGDADSVK	VGRGGGYFDY	21 µM	1 of 3